For this assay, the target named is T1, μ-opioid receptors (Rattus norvegicus, UniProt P33535).
T1 construct: A crude membrane fraction was prepared from Wistar rat brains and spinal cords; from tissue; host or cells: Wistar rat brain (without cerebellum), crude membrane fraction
The assay is described as follows: Receptor binding assay, [3H]DAMGO displacement in rat brain membranes. To be noted: in words.

The chains behind the UniProt entries cited, without tags or fusion partners.
UniProt P33535, whole entry: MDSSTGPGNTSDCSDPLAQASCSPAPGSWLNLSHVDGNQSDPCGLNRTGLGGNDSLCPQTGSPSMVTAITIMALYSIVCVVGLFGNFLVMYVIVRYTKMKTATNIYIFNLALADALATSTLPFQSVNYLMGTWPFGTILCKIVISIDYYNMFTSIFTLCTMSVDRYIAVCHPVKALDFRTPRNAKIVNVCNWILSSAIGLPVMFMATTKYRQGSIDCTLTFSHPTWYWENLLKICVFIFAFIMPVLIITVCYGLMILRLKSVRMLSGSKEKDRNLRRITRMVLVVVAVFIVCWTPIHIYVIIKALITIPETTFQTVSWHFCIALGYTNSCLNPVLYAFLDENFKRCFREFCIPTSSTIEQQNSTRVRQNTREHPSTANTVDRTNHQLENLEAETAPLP

As for `[2H][C@@H]1[C@H]([2H])[C@H]2[C@H]3Cc4ccc(O)c5c4[C@@]2(CCN3C)[C@@H](O5)[C@H]1O` [Example 1, (5α,6α,7β,8β)-3,6-dihydroxy-4,5-epoxy-17-methyl-(7,8-^2H2)-morphinan], the “affinity to μ-opioid receptors compared to morphine” value is listed as “higher affinity to μ-opioid receptors than the morphine”, the “affinity to μ-opioid receptors compared to the corresponding hydrogenated derivative” value was “higher affinity to μ-opioid receptors than the corresponding hydrogenated derivatives” and the “μ-opioid activity compared to DAMGO” value was “more active than the prototypic opioid ligand DAMGO”.

The values are drawn from patent US9447108B2 (SZEGEDI TUDOMÁNYEGYETEM, priority 2013, dated 2016).
